Assay results published in PMC9221018, “Sulfonamide-Derived Dithiocarbamate Gold(I) Complexes Induce the Apoptosis of Colon Cancer Cells by the Activation of Caspase 3 and Redox Imbalance” (Biomedicines, 2022).

Test: n-octanol-water distribution coefficient, shake-flask method
Type: physicochemical
Conditions: n-octanol/buffered saline pH 7.4, shake-flask
Procedure: The n-octanol−water coefficients of the complexes were determined using a shake-flask method, as reported previously. Briefly, 100 mL buffered-saline (0.15 M NaCl, 10 mM phosphate [PO4^3−] buffer, pH 7.4) and 100 mL n-octanol were shaken for 72 h. The addition of 1 mg of the complexes followed by the centrifugation and separation of both phases gave two solutions, which were analysed by UV absorbance spectroscopy to determine their concentration in each phase. The corresponding value of log P was defined as log{[compound(organic)]/[compound(aqueous)]}.

Substance: [Au(S2CNHSO2-p-Me-C6H4)(IBnPropargyl)] [Complex 10]
- Log P7.4: 0.36
